Legend:
[1] = target: Thymidylate synthase (Homo sapiens) (UniProt P04818)
[2] = target: Thymidylate synthase (Escherichia coli) (UniProt C3SWJ7)
[3] = target: Thymidylate synthase (Escherichia coli) (UniProt C3SWJ7); remark: listed apart in the source
[4] = target: Thymidylate synthase (Homo sapiens) (UniProt P04818); remark: listed apart in the source
[5] = target: Thymidylate synthase (Homo sapiens) (UniProt P04818); remark: listed apart in the source
[6] = target: Thymidylate synthase (Escherichia coli) (UniProt C3SWJ7); remark: listed apart in the source
[7] = target: Thymidylate synthase (Escherichia coli) (UniProt C3SWJ7); remark: listed apart in the source
[8] = target: Thymidylate synthase (Homo sapiens) (UniProt P04818); remark: listed apart in the source

Sequences of proteins named here, by UniProt entry; tags and fusion partners are left off. A change or cut given only in a name is not applied to a line headed by its entry.
UniProt P04818: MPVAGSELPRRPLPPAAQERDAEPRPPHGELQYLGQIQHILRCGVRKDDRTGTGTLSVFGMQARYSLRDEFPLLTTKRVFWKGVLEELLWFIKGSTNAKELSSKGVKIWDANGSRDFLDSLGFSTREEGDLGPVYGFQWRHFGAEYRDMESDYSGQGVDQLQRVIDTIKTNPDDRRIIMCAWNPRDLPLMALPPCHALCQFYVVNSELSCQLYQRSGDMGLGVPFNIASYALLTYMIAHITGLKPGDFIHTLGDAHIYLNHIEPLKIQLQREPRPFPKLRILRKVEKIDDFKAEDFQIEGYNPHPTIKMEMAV

Row | Kis [1] [µM] | Kis [2] [µM] | Kii [3] [µM] | Kii [4] [µM] | Kis [5] [µM] | Kis [6] [µM] | Kii [7] [µM] | Kii [8] [µM] | Compound
1 | 3.8 | 22 | 16 | 2.9 |  |  |  |  | CSC1Nc2ccc(N(C)Cc3ccc(S(=O)(=O)c4ccc(O)cc4)cc3)c3cccc1c23 (stereo not drawn)
2 | 0.3 | 6.6 | 11 | 0.25 |  |  |  |  | CN(Cc1ccc(S(=O)(=O)N2CCOCC2)cc1)c1ccc2c3c(cccc13)C(=O)N2
3 | 0.043 | 0.3 | 0.53 | 0.03 |  |  |  |  | Cc1ccc2c3c(ccc(N(C)Cc4ccc(S(=O)(=O)c5ccc(N)cc5)cc4)c13)N=C2N
4 | 0.2 | 2.9 | 6 | 0.06 |  |  |  |  | CN(Cc1ccc(S(=O)(=O)c2ccc(O)cc2)cc1)c1ccc2c3c(cccc13)C(=O)N2
5 | 0.076 | 1.4 | 1 | 0.039 |  |  |  |  | Cc1ccc2c3c(ccc(N(C)Cc4ccc(S(=O)(=O)N5CCOCC5)cc4)c13)NC2=O
6 | 0.073 | 3 | 3.4 | 0.07 |  |  |  |  | Cc1ccc2c3c(ccc(N(C)Cc4ccc(S(=O)(=O)c5ccccc5)cc4)c13)NC2=O
7 | 0.12 | 3.1 | 3.5 | 0.075 |  |  |  |  | CN(Cc1ccc(S(=O)(=O)N2CCOCC2)cc1)c1ccc2c3c(ccc(Cl)c13)C(=O)N2
8 | 6.9 | 39 | 92 | 8.8 |  |  |  |  | O=C1Nc2ccc(N(CCCO)Cc3ccc(S(=O)(=O)N4CCNCC4)cc3)c3cccc1c23
9 | 0.064 | 5 | 5.6 | 0.094 |  |  |  |  | COc1ccc(S(=O)(=O)c2ccc(CN(C)c3ccc4c5c(ccc(C)c35)C(=O)N4)cc2)cc1
10 | 1.3 | > 1 | > 1 | 1 |  |  |  |  | CCN(Cc1ccc(S(=O)(=O)c2ccccc2)cc1)c1ccc2c3c(cccc13)C(=O)N2
11 | 0.053 | 2.1 | 4.7 | 0.054 |  |  |  |  | CNC1=Nc2ccc(N(C)Cc3ccc(S(=O)(=O)c4ccccc4)cc3)c3cccc1c23
12 | 0.017 | 1.3 | 6.3 | 0.053 |  |  |  |  | CNC1=Nc2ccc(N(C)Cc3ccc(S(=O)(=O)N4CCOCC4)cc3)c3cccc1c23
13 | 0.11 | > 10 | > 10 | 0.18 |  |  |  |  | CN(Cc1ccc(S(=O)(=O)c2ccc([N+](=O)[O-])cc2)cc1)c1ccc2c3c(cccc13)C(=O)N2
14 | 1.9 | > 10 | > 10 | 2.5 |  |  |  |  | CN(Cc1ccc(S(=O)(=O)c2ccccc2)cc1)c1ccc2c3c(cccc13)C(NN)=N2
15 | 0.36 | 6.1 |  | 0.73 |  |  |  |  | CN(Cc1ccc(S(=O)(=O)c2ccccc2)cc1)c1ccc2c3c(cccc13)C(NO)=N2
16 | 0.02 | 0.13 | 0.18 | 0.015 |  |  |  |  | Cc1ccc2c3c(ccc(N(C)Cc4ccc(S(=O)(=O)N5CCOCC5)cc4)c13)N=C2N
17 | 0.09 | 1.1 | 2 | 0.064 |  |  |  |  | Cc1ccc2c3c(ccc(N(C)Cc4ccc(S(=O)(=O)c5ccc([N+](=O)[O-])cc5)cc4)c13)N=C2N
18 | 1 | > 1 | > 1 | 1.1 |  |  |  |  | Cc1ccc2c3c(ccc(NCc4ccc(S(=O)(=O)c5ccccc5)cc4)c13)NC2=O

Row | Kis [1] [µM] | Kis [2] [µM] | Kii [3] [µM] | Kii [4] [µM] | Kis [5] [µM] | Kis [6] [µM] | Kii [7] [µM] | Kii [8] [µM] | Compound
19 | 11 | 18 | 27 | 5.7 |  |  |  |  | CC(C)N(Cc1ccc(S(=O)(=O)N2CCNCC2)cc1)c1ccc2c3c(cccc13)C(=O)N2
20 |  |  |  |  | 13 | > 30 | > 30 | 11 | CCCN(Cc1ccc(S(=O)(=O)N2CCNCC2)cc1)c1ccc2c3c(cccc13)C(=O)N2
21 | 5 | > 1 | > 1 | 2.8 |  |  |  |  | CSCN(Cc1ccc(S(=O)(=O)c2ccccc2)cc1)c1ccc2c3c(cccc13)C(=O)N2
22 | 0.14 | 4.5 | 7.4 | 0.079 |  |  |  |  | CC(=O)c1cccc2c(N(C)Cc3ccc(S(=O)(=O)c4ccc(N)cc4)cc3)ccc(N)c12
23 | 0.4 | 7.1 | 22 | 0.081 |  |  |  |  | CCN(Cc1ccc(S(=O)(=O)c2ccccc2)cc1)c1ccc2c3c(cccc13)C(N)=N2
24 | 0.27 | > 2 | > 2 | 0.18 |  |  |  |  | COc1ccc(S(=O)(=O)c2ccc(CN(C)c3ccc4c5c(cccc35)C(=O)N4)cc2)cc1
25 | 0.025 | 1.4 | 2.5 | 0.02 |  |  |  |  | COc1ccc(S(=O)(=O)c2ccc(CN(C)c3ccc4c5c(cccc35)C(N)=N4)cc2)cc1
26 | 0.029 | 1.6 | 2.1 | 0.02 |  |  |  |  | CN(Cc1ccc(S(=O)(=O)N2CCOCC2)cc1)c1ccc2c3c(ccc(Cl)c13)C(N)=N2
27 | 0.039 | 0.51 | 1 | 0.029 |  |  |  |  | CNC1=Nc2ccc(N(C)Cc3ccc(S(=O)(=O)c4ccc(OC)cc4)cc3)c3c(C)ccc1c23
28 | 0.035 | 0.21 | 0.55 | 0.044 |  |  |  |  | Cc1ccc2c3c(ccc(N(C)Cc4ccc(S(=O)(=O)c5ccccc5)cc4)c13)N=C2N
29 | 0.11 | 0.23 | 0.54 | 0.11 |  |  |  |  | CSc1ccc2c3c(ccc(N(C)Cc4ccc(S(=O)(=O)N5CCOCC5)cc4)c13)N=C2N
30 | 0.59 | 6.5 | 12 | 0.88 |  |  |  |  | O=C1Nc2ccc(N(CCO)Cc3ccc(S(=O)(=O)N4CCNCC4)cc3)c3cccc1c23
31 | 0.012 | 0.27 | 0.64 | 0.015 |  |  |  |  | CN(Cc1ccc(S(=O)(=O)c2ccc(O)cc2)cc1)c1ccc2c3c(cccc13)C(N)=N2
32 | 0.13 | 2.7 | 2.6 | 0.12 |  |  |  |  | Cc1ccc2c3c(ccc(N(C)Cc4ccc(S(=O)(=O)c5ccc([N+](=O)[O-])cc5)cc4)c13)NC2=O
33 | 0.048 | 1.3 | 1.4 | 0.032 |  |  |  |  | COc1ccc(S(=O)(=O)c2ccc(CN(C)c3ccc4c5c(ccc(C)c35)C(N)=N4)cc2)cc1
34 | 0.432 | 1.1 | 0.87 | 0.1 |  |  |  |  | COc1ccc(S(=O)(=O)c2ccc(CN(C)c3ccc4c5c(ccc(C)c35)C(NO)=N4)cc2)cc1
35 | 2.6 | > 3 | > 3 | 2.8 |  |  |  |  | O=C1Nc2ccc(NCc3ccc(S(=O)(=O)c4ccccc4)cc3)c3cccc1c23
36 | 0.046 | 1.3 | 1.8 | 0.039 |  |  |  |  | Cc1ccc2c3c(ccc(N(C)Cc4ccc(S(=O)(=O)c5ccc(N)cc5)cc4)c13)NC2=O
